Assay: Storage stability of dry alliin/alliinase components and filters (potential to produce allicin)
Assay type: physicochemical
Settings: dry form at room temperature
Description: In preliminary experiments conducted by the inventors of the present invention, a method for isolation of the natural substrate alliin from garlic cloves has been developed, and the enzyme alliinase has been purified and stabilized in a dry form.
In preliminary experiments conducted by the inventors of the present invention, various amounts of alliin (100-200 μl from a solution of 50 mg/ml in water) and alliinase (100-200 μl from a solution of 120 enzyme units/ml in PBS pH 7.2 containing 5% mannitol) were adsorbed on different types of matrices, e.g., glass fiber filters, and upon wetting of the two matrices, when placed one on top of the other, using an aqueous buffered solution, different amounts of allicin were produced. For example, glass fiber filter matrices containing 2.5-10 mg of alliin together with glass fiber filter matrices each containing 14 units of dry alliinase yielded between 0.5-1.0 mg allicin following wetting of the two matrices and incubation at room temperature for 30 minutes.

For alliin, the “preservation of potential for producing allicin” value was “preserved their potential for producing allicin for several months”.

— patent US20110027341A1, “DEVICE FOR IN SITU PRODUCTION AND TOPICAL ADMINISTRATION OF ALLICIN” (YEDA RESEARCH AND DEVELOPMENT CO., LTD. at the Weizmann …, priority 2008, published 2011)
